{"source": "patent US12201629B2", "about": "(priority 2017, dated 2025)", "assay": "Example 2: pharmacokinetics of oral and intravenous buprenorphine hydrochloride under naltrexone blockade", "key": {"[1]": {"details": "oral, equimolar to 5 mg buprenorphine base, n = 8"}}, "data": [{"substance": "Buprenorphine HCl [Buprenorphine HCl IR oral]", "values": [{"measurement": "period with analgesic blood levels on the level of Butrans 20 mcg/h", "setting": "oral IR, equimolar to 5 mg buprenorphine base, FIG. 3", "result": "at least 12 hours"}, {"measurement": "Absolute Bioavailability (F %)", "setting": "oral solution 5 mg vs 0.3 mg IV, Mean ± SD, AUCt oral/AUCt IV × Dose IV/Dose oral", "result": "5.18 ± 2.47", "unit": "%"}, {"measurement": "Buprenorphine Mean Cmax", "setting": "[1]", "result": 0.628, "unit": "ng/mL"}, {"measurement": "Buprenorphine Mean Tmax", "setting": "[1]", "result": 2.500, "unit": "h"}]}]}
